# Binding of CDR-mutated scFvs to a peptide of the spike HR2 region

Binding partner: SARS-CoV-2 spike HR2 peptide, sequence PDVDLGDISGINAS.

The variants keep the heavy chain, the linker and the frameworks of Ab-14 (scFv order VH, three GGGGS repeats, VL).
VH: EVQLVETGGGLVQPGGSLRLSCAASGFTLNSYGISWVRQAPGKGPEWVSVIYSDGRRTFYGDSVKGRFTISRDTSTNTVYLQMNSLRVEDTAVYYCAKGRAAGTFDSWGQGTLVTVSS
VL: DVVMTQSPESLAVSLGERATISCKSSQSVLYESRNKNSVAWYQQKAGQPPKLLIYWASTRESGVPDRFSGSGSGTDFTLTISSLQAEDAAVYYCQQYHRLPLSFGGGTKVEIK

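The parent was found by panning a naive human phage display library on the peptide. These sequences belong to a second round, designed from the earlier measurements on random variants of the parent. Group labels follow the data file (Ctrl: baseline library sampled from a position-specific scoring matrix, with some repeated check sequences; GP: Gaussian process model; HC: hill climbing; Gen: genetic algorithm; Gibbs: Gibbs sampling; a sequence that several methods proposed may carry one label only). The scFvs were displayed on barcoded MATa yeast, the peptide on MATalpha yeast. After mating in shaken culture at 30 °C for 16 h, diploids were selected and their barcode pairs sequenced. Scores were corrected for input abundance and mapped to Kd with protein pairs of known affinity run in the same pool. Mating was done six times.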

Variants are written as CDR1, CDR2 and CDR3 of the light chain (limits as in the source). Parent: KSSQSVLYESRNKNSVA, WASTRES, QQYHRLPLS.
This list holds designs with at most six substitutions.
Affinities are written as log10 Kd with Kd in nM; a lower number is a better binder.
Averages over replicates are reported, and they cover detected replicates only.
An entry "no signal" has no value in the source: the pair was not observed among the diploids in any replicate. This suggests poor binding but is not conclusive.

For KSSQGLMYESRNKNSVA | WASTRES | QQYHRLPLS [Ctrl], the assay gave 1.99 (6 of 6 replicates). With KVSQSVLYESRNKNSVA | NASTRES | QQYHRLPLL [GP_Gen] the result was 0.59 (6 of 6 replicates). Variant KLSQGQLYESRNKNNVA | SASTREM | QQYHRLPLS [GP_Gibbs] gave -0.12 (6 of 6 replicates). Variant MVSQSVEYESRNKNSVA | EASTRES | QQYHRLPLS [Ctrl] gave 0.02 (6 of 6 replicates). Variant KFSQSVLYESRNKNSVA | NASQRLS | QQYHRLPLS [GP_Gen] gave 0.14 (6 of 6 replicates). With KSSQSVLYPSRNKNSVA | WASTREM | QQYHRLPLS [Ctrl] the result was 2.16 (4 of 6 replicates).

With KLMQSELYESRNKNSVA | EASTRES | QQYHRLPLS [GP_Gen] the result was -0.19 (6 of 6 replicates). Variant KMSQSWLYESRNSNSVA | EASTRES | QDYHRLPLS [GP_Gibbs] showed -0.32 (6 of 6 replicates). With KSTISYLYESRNKNSVA | AASTRES | QQYHRLPLS [GP_HC] the result was 0.24 (6 of 6 replicates). For KSSQSVLYESDNKNDVA | WASTRLS | QQYHRLPLL [Ctrl], the assay gave no signal (0 of 6 replicates). Variant KVVQSWLYESRNKNSVA | NASQRES | QQYHRLPLS [GP_Gen] gave 0.07 (6 of 6 replicates). For KLSQSDLYESRNKNSVA | HASTRLS | QQYHRLPLS [GP_Gen], the assay gave 0.27 (6 of 6 replicates).

For KSSQSVEYESRDKNSVA | MASTRVS | QQYHRLPLS [Ctrl], the assay gave 0.76 (6 of 6 replicates). Variant KMSQSELYESRNKNSVA | NASTRMS | QQYHRLPLS [GP_Gen] gave 1.01 (6 of 6 replicates). With KSSISFLYESRNKNSVA | EASTRES | QQYHRLPLM [GP_HC] the result was 0.49 (6 of 6 replicates). Variant KVQQSELYESRNKNSVA | NASTRLS | QQYHRLPLS [GP_Gen] showed 0.36 (6 of 6 replicates). Variant KSSQSFLYESRNVNSVA | DASTRES | QQYHRLPLS [GP_HC] gave -0.13 (6 of 6 replicates). Variant KASQSVLYETRNKHSVA | WASTRES | QQYHRLPLP [Ctrl] showed no signal (0 of 6 replicates).

With KFSQSWLYESRNKNSVA | NGSTRES | QQYHRLPLS [GP_Gen] the result was 0.23 (6 of 6 replicates). Variant KLSQSVLYESRNKNSVA | NASTREM | QQYHRLPLS [GP_Gen] showed -0.31 (6 of 6 replicates). For KSSQSELYEDRVKNSVA | GASTRES | QQYHRLPLS [GP_HC], the assay gave -0.02 (6 of 6 replicates). For KSSQSMLYESSNKNSVA | WASVRES | QQYHRLPLS [Ctrl], the assay gave 1.41 (6 of 6 replicates). With KSSQSVLYESENKNSVA | QASTRES | QQYHRLPFS [Ctrl] the result was 1.50 (6 of 6 replicates). With KVSQSKLYESRNKNSVA | NASTRES | QQYHRLPLS [GP_Gen] the result was 0.40 (6 of 6 replicates).

Variant KSECGVLYEGRNKNSVA | GASTRES | QQYHRLPLS [GP_HC] showed -0.03 (6 of 6 replicates). Variant KFSQSWLYESRNKNSVA | NASQRMS | QQYHRLPLS [GP_Gen] showed 0.20 (6 of 6 replicates). Variant KSSQSVLYESRNKNSVA | NGSTRES | QQYHRLPLS [GP_Gen] gave 0.48 (6 of 6 replicates). Variant KSSQSVLYYSRNKNSVA | WASTRES | QVYHRNPLS [Ctrl] showed no signal (0 of 6 replicates). Variant KSSQDVLYESRNKNSVA | WASTRES | QQYHRLPLS [Ctrl] gave 1.23 (2 of 6 replicates). Variant KSEQSVLYESFNKNSVA | WASTRES | QQYYRLPLS [Ctrl] showed 0.66 (6 of 6 replicates).

Variant HSSPSCLYESRNKNSVA | NASTRES | QQYHRLPLS [GP_HC] showed 0.73 (6 of 6 replicates). Variant KLSQSQLYESRNKMSVA | NASTRES | QQYHRLPLS [GP_Gen] gave -0.19 (6 of 6 replicates). With KQSQEKPYESRNKNSVA | DASTRES | QQYHRLPLS [GP_HC] the result was -0.47 (6 of 6 replicates). Variant KLSQSVLYESRNKNNVA | EASTRCS | QQYHRLPLS [GP_Gen] gave 0.13 (6 of 6 replicates). Variant KSEQGVLYESRNKNSVA | GASTRES | QQYHRLPLH [GP_HC] gave 0.32 (6 of 6 replicates). For KVSQSWLYESRNKNSVA | NASTRES | QQYHRLPLM [GP_Gen], the assay gave -0.39 (6 of 6 replicates).

Variant KSSQSVLYESRNKNSVA | WASTRES | QQYHRLVLK [Ctrl] gave no signal (0 of 6 replicates). Variant KSQQSVLYESRNKNNVA | HASTRED | QQYARLPLS [GP_HC] showed 0.00 (6 of 6 replicates). Variant KSSISDLYESRNTNSVA | EASTRES | QQYHRLPLS [GP_HC] showed -0.35 (6 of 6 replicates). Variant KQSQSVLMESRNWNSVA | DASTRES | QQYVRLPLS [GP_HC] gave -0.10 (6 of 6 replicates). Variant KVSQSVLYESRVKNSVA | NASTRES | QQYHRLPLS [GP_Gen] gave -0.06 (6 of 6 replicates). For KFSQSVLYESGTKNSVA | NAVTRET | QQYHRLPLS [GP_HC], the assay gave -0.09 (6 of 6 replicates).

Variant KMSQVYLYESRNKNSVA | GASTRES | QQYHRLPLS [GP_HC] gave -0.08 (6 of 6 replicates). For KASQSQLMESENKNSIA | WASTRES | QQYHRLPLS [Ctrl], the assay gave 2.23 (5 of 6 replicates). With KSSQSVEPESRNKNSVA | WASTRES | QQYHRLPLS [Ctrl] the result was no signal (0 of 6 replicates). Variant KVSQSQLYESRNKNSVA | QASQRES | QQYHRLPLS [GP_Gen] gave 0.20 (6 of 6 replicates).

In the paper, a design with two or fewer of six values counts as a poor binder.
Nonspecific signal, from three strains lacking the peptide, appeared in 4% of pairings of all light chain designs, centred on 2.64 (5% of these signals below 1.59); values are not corrected for it.
The range of this assay differs from that of the first round, and the authors advise against merging the two.

Data: MIT Lincoln Laboratory AlphaSeq set, Li et al. 2023, doi:10.1038/s41467-023-39022-2, as distributed in FLAb.